We go through 1 compound from US4778799A, “Synergistic combination of flupirtin and non-steroidal antiphlogistic” (priority 1985, dated 1988).

Each structure is given as a SMILES string.

The data set in a line: in vivo. To be noted: mouse, po.

What is called LD50 is the dose at which mortality reaches 50%. Low values mean a more toxic substance, high ones a less toxic substance. The compound `CC1=C(CC(=O)O)c2cc(F)ccc2/C1=C\c1ccc([S+](C)[O-])cc1` (stereo not shown) [Sulindac] displayed an LD50 of 507 mg/kg.
